An excerpt weighted towards active compounds, which were near 16% of everything screened.
uPA generation: inhibitors of cell surface uPA generation; Potency, µM (series often up to 38.3 µM), most hits filed as inhibitors; cell surface uPA generation assay, qHTS; 330,000 compounds, 0.31% hits; active = well fitted inhibition curve with a large enough effect; inconclusive = small, poorly fitted or top-dose-only effect; inactive = no such curve, though single readings can be large or run the other way; tested in mouse RAW 264.7 cells; also: nearly all actives have a fitted effect of over 55% in size
TDP1 block: blocks human tyrosyl-DNA phosphodiesterase 1. Q9NUW8. recombinant TDP1, AlphaScreen DNA substrate cleavage. Potency, µM (series often up to 130 µM), hits mostly inhibitors. 350,000 compounds, 0.28% hits; also: nearly all actives have a fitted effect of over 40% in size
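Compounds were preincubated with Tdp1 (1 nM final) for 15 min at room temperature before substrate (15 nM final) started a 5 min reaction; beads (10 ug/ml final) were then added for 10 min before AlphaScreen detection.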
DT40 TDP1 no CPT: qHTS for Inhibitors of human tyrosyl-DNA phosphodiesterase 1 (TDP1): qHTS in cells in absence of CPT. Potency, µM (titrated, usually from 46.2 µM), hits mostly inhibitors. DT40 Tdp1-/- hTDP1 cells, no CPT, ATP luminescence, 48 h. AID 686978, 2013. 420,000 compounds, 15% hits; also: nearly all actives have a fitted effect of over 55% in size
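Readout: luminescence from CellTiter-Glo after 30 min in the dark at RT. Cells: DT40 Tdp1-/- with stable hTDP1, 400/well. Exposure: compounds alone, ≥48 hr, 37 °C.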
DT40 TDP1 CPT: growth inhibition of DT40 Tdp1-/-;hTDP1 cells with camptothecin (screen for TDP1 inhibitors); chicken DT40 Tdp1-/-;hTDP1 cells + 20 nM CPT, ATP luminescence, 48 h; Potency, µM (top dose mostly 46.2 µM), usual class: inhibitors; 420,000 compounds, 12% hits; also: nearly all actives have a fitted effect of over 55% in size
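Cell growth measured by CellTiter-Glo luminescence after a minimum 48 h, 37 C compound exposure with 20 nM CPT in Tdp1-knockout DT40 cells stably expressing hTDP1, seeded 400/well; qHTS titration format.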
miR-21 reporter: miR-21 reporter, rising signal; HeLa miR-21 FLuc reporter, luciferase, 48 h; Potency, µM (titrated, usually from 38.3 µM); 340,000 tested, under 10 active; AID 2288; active = well fitted rising curve with a large enough effect; inconclusive = small, poorly fitted or top-dose-only effect; inactive = no such curve, though single readings can be large or run the other way;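 also: miR-21 action dims this reporter so a rising signal means less miR-21 action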
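Luminescence from a firefly luciferase reporter carrying a miR-21 binding site downstream, stably expressed under a CMV promoter in HeLa cells that make miR-21 endogenously, reports miRNA modulation after 48 h compound exposure up to approximately 40uM final.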
Hits are given with their value; – = inactive; ? = inconclusive; · = no result. Unless noted, calls follow the shape of the dose curve; as a rule, active = well fitted curve in the direction sought with a large enough effect; inconclusive = small, poorly fitted or top-dose-only effect, or another doubt; inactive = no such curve, though single readings can be large; an effect the other way counts as inactive or inconclusive.

SMILES	uPA generation	TDP1 block	DT40 TDP1 no CPT	DT40 TDP1 CPT	miR-21 reporter
CC1CCCC1/C(=N/O)c1ccccc1 (configuration not stated)	–	·	–	–	–
CCOc1cc(CNCCCN2CCOCC2)cc(Br)c1OCc1ccccc1Cl	–	–	4.6µM	3.7µM	?
C=CCOc1c(Br)cc(CNCCCN2CCOCC2)cc1OC	–	–	?	–	–
CCOc1cc(C2NN=C(c3ccccc3)S2)ccc1OCc1ccccc1Cl (configuration not stated)	–	·	16µM	?	–
CCOc1cc(CNCCN2CCOCC2)ccc1OCc1ccccc1Cl	–	–	18µM	?	–
CCOc1cc(CNC2CCCC2)ccc1OCc1ccccc1Cl	–	–	21µM	13µM	–
Cc1ccccc1-c1nnn(CC(=O)N2CCN(C(=O)c3ccco3)CC2)n1	–	·	–	–	·
C=CCNc1nc(Cl)nc(NCc2ccco2)n1	–	·	–	–	–
Cc1ccc(-c2nc(NCc3ccco3)c3ccccc3n2)cc1	–	–	?	?	–
CSc1nc(NCc2ccco2)c2ccccc2n1	–	–	?	?	–
CNc1nc(NCc2ccco2)c2ccccc2n1	·	·	16µM	10µM	·
C=CCNc1nc(NCc2ccco2)nc(OCC)n1	–	–	?	21µM	–
Clc1nc(NCc2ccco2)c2ccccc2n1	·	·	7.1µM	?	·
CCNc1nc(NCc2ccco2)c2ccccc2n1	·	·	11µM	11µM	·
Cc1ccc2cccc(SCC(=O)Nc3ccc(F)cc3)c2n1	–	·	?	?	–
O=C(NNS(=O)(=O)c1ccc(F)cc1F)c1csc(-c2cccnc2)n1	–	–	–	–	–
Cc1ccccc1C(=O)N1c2ccccc2OCC1C(C)(C)C (configuration not stated)	–	·	21µM	?	–
CC(C)(C)C1COc2ccccc2N1C(=O)c1ccccc1Cl (configuration not stated)	–	·	?	?	–
CCOC(=O)CSc1nc2c(sc3ccccc32)c(=O)n1Cc1ccc(C)cc1	·	–	?	21µM	–
CCc1ccc(NC(=O)CSc2nc3c(sc4ccccc43)c(=O)n2CCCOC)cc1	·	–	?	?	–
CCCCN(CC)C(=O)CSc1nc2c(sc3ccccc32)c(=O)n1CCc1ccccc1	·	–	5.2µM	?	–
C=CCN(C(=O)CSc1nc2c(sc3ccccc32)c(=O)n1CCN(CC)CC)c1ccccc1	–	–	16µM	18µM	–
CCc1ccc(NC(=O)CSc2nc3c(sc4ccccc43)c(=O)n2CCCOC(C)C)cc1	·	–	21µM	–	–
CCOC(=O)CSc1nc2c(sc3ccccc32)c(=O)n1CCc1ccccc1	·	–	?	–	–
COc1ccc(NC(=O)Cn2nc(C(F)(F)F)c3c2CCCC3)cc1OC	·	–	?	?	–
SMILES	uPA generation	TDP1 block	DT40 TDP1 no CPT	DT40 TDP1 CPT	miR-21 reporter
CCCCOc1ccc(C(=O)Nc2ccc(S(=O)(=O)Nc3cc(C)on3)cc2)cc1OC	–	–	?	–	–
CC1(c2nnc(Cc3ccccc3)o2)CC(c2cccc([N+](=O)[O-])c2)=NO1 (configuration not stated)	–	·	–	–	·
CCc1ccc(NC(=O)CSc2nc3c(sc4ccccc43)c(=O)n2CCN(CC)CC)cc1	·	–	9.2µM	15µM	–
CCN(CC)CCn1c(SCC(=O)Nc2ccc(F)cc2)nc2c(sc3ccccc32)c1=O	·	–	·	·	–
CC(=O)NCCNc1nc(NCc2cccs2)nc2ccsc12	·	·	?	–	·
COc1ccc(OC)c(S(=O)(=O)NCc2cc(-c3ccccc3)no2)c1	–	–	–	–	–
c1ccc(CNc2nc(NCCc3ccncc3)c3sccc3n2)cc1	·	·	10µM	18µM	·
COCCNc1nc(NCc2cccs2)nc2ccsc12	·	·	26µM	?	·
CNc1nc(NCc2ccccc2)c2sccc2n1	·	·	16µM	18µM	·
COCCNc1nc(NCc2cc(-c3ccc(OC)cc3)no2)c2sccc2n1	·	·	18µM	?	·
CCOc1ccc(NC(=O)CNS(=O)(=O)c2c(C)cc(C)cc2C)cc1	–	–	?	–	–
CC(=O)Nc1ccc(S(=O)(=O)N[C@@H](C)C(=O)N(C)Cc2cccs2)cc1	–	–	–	–	·
COc1ccc(S(=O)(=O)CC(=O)Nc2ccccc2Cl)cc1	–	–	–	–	–

From PubChem BioAssay
